The values that follow are results of earlier work, collected in patent publication US7579350B2, “Scaffolds for α-helix mimicry” (The Scripps Research Institute, priority 2005, dated 2009).

Chains of the proteins cited; added tags and fusions are not shown.
UniProt Q07817, whole entry, species assumed: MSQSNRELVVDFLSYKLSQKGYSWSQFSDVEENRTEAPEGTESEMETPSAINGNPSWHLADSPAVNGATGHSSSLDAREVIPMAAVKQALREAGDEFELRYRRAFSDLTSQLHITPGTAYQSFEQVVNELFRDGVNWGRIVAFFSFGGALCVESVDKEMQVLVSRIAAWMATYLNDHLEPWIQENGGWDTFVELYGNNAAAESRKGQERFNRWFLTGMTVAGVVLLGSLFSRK

In this series the target is Bcl-xL (Homo sapiens, UniProt Q07817). Conditions: Bak aa 72 to 87 bound to Bcl-xL; cited from earlier work.

Take “16 residue BH3 domain peptide from Bak: 16 residue BH3 domain peptide from Bak (aa 72 to 87) that binds Bcl-xL in a helical conformation”: the Kd is approximately 300 nM.

Usually Kd stands for the free concentration of one partner at which half of the binding sites on the other are occupied at equilibrium, for simple one-to-one binding.
